# Yeast mating assay B: variants of the scFv Ab-14

Target: peptide PDVDLGDISGINAS, taken from heptad repeat 2 (HR2) of SARS-CoV-2 spike.

The variants keep the heavy chain, the linker and the frameworks of Ab-14 (scFv order VH, three GGGGS repeats, VL).
VH: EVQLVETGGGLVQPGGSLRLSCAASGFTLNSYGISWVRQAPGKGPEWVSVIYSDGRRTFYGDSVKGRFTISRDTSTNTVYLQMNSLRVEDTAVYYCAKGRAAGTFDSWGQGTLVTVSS
VL: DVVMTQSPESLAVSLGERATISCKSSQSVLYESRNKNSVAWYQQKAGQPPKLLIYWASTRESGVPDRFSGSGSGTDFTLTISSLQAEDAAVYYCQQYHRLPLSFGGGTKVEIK

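These sequences belong to a second round, designed from the earlier measurements on random variants of the parent. Several design methods are mixed in this list. Affinity was read by AlphaSeq, a pooled yeast mating assay with surface-displayed partners. After mating in shaken culture at 30 °C for 16 h, diploids were selected and their barcode pairs sequenced. Scores were corrected for input abundance and mapped to Kd with protein pairs of known affinity run in the same pool. There are six technical replicates.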

Each variant is given by its three light chain CDRs, as the data file delimits them; those of the parent are KSSQSVLYESRNKNSVA, WASTRES, QQYHRLPLS.
This list holds designs with more than six substitutions.
Each Kd is an estimate from the mating assay, the geometric mean of the replicates in which the pair was seen; lower is stronger.

The variant VISELYNQATGMRNNVA | NNATRED | QQYDRLPLS showed 170 nM (6 of 6 replicates; controls 2 of 18). For MMSMGFLGGMRAKNNVA | QESTRES | QQYHRLPLI, the assay gave 50 nM (5 of 6 replicates; controls 1 of 18). The variant KVSGLGLYGQRNKNSVA | EANTRED | QQYHRLPLS gave 560 pM (6 of 6 replicates; controls 4 of 18). The variant QIYQAMHTLSQMKDNVA | DVNERGD | QQYYRLPLS gave 4.7 nM (6 of 6 replicates; controls 0 of 18). The variant KISMLYNMTFEASNNVA | EMVTREK | QQYNRLPLS gave 17 nM (6 of 6 replicates; controls 0 of 18).

The variant KLDMFIPSQKEWDASIA | GATLRPT | QDYARLPLS gave 3.3 µM (4 of 6 replicates; controls 1 of 18). For KMSGSVMMLSRNWNSVA | QASTREQ | QQYHRLPLS, the assay gave 510 pM (6 of 6 replicates; controls 0 of 18). With KISMLMENSHVNRNSVA | ELVTRMR | QQYNRLPLS the result was 89 nM (3 of 6 replicates; controls 1 of 18). With KISQSVPYEDRNFNSVA | HASYRIS | QQYHRLPLS the result was 140 nM (6 of 6 replicates; controls 1 of 18). The variant QLKTEVIDNQKLRNSIA | ENELRAM | QQYLMLPLS showed 12 nM (6 of 6 replicates; controls 0 of 18).

The variant KIDQQTSYDNGRERAIA | DVTIRFW | QQYARLPLL showed 57 nM (6 of 6 replicates; controls 1 of 18). For KIAGMSNHQESVHNNVA | ENVTRVK | QQYFRLPLS, the assay gave 3.2 nM (6 of 6 replicates; controls 1 of 18). For TISQSINMTSRGKNSVA | QAEMRES | QQYDRLPLS, the assay gave 12 nM (6 of 6 replicates; controls 1 of 18). The variant MLTMFNNENQGRSNNIA | DTNNVQE | QQYSRLPFA showed 3.7 nM (6 of 6 replicates; controls 1 of 18). With KLEQWQDYESRNKNSVA | QASTREQ | QQYHRLPLS the result was 330 pM (6 of 6 replicates; controls 0 of 18).

The variant KLYVSTMLEEHNKNSIA | DLSTRGN | QQYHRLPLS showed 4.3 nM (6 of 6 replicates; controls 1 of 18). The variant HWSQSVPMGERNKNSVA | MASYRES | QQYHRLPLS showed 14 nM (6 of 6 replicates; controls 1 of 18). The variant KQSFMVMEGSRNKNSVA | EASLREE | QQYHRLPLS gave 2.7 nM (6 of 6 replicates; controls 0 of 18). With KQQCGELYGSRNKNSVA | DASQRES | QQYHRLPLS the result was 9.1 nM (6 of 6 replicates; controls 1 of 18). For RMNKFMSEITGARNSIA | GAEHLAQ | QHYHRLPLS, the assay gave 8.0 nM (6 of 6 replicates; controls 0 of 18).

The variant MISQLYNMGTFAINSVA | QASLRNV | QQYDRLPLA showed 41 nM (6 of 6 replicates; controls 2 of 18). With QLYELMVELSGKTHSVA | DNSTRGE | QQYFRLPLE the result was 13 nM (6 of 6 replicates; controls 3 of 18). For KQSMSVMMGSRNKNSVA | SAHKREA | QQYHRLPLS, the assay gave 2.3 µM (3 of 6 replicates; controls 1 of 18). The variant TIGQTLMYGMRNRSNVA | EVSQRLN | QQYDRLPLL showed 57 nM (6 of 6 replicates; controls 1 of 18). For TISQMTSLFSQSINNVA | EVSMREE | QQYDRLPLV, the assay gave 5.2 nM (6 of 6 replicates; controls 1 of 18).

For KLSNMADYEDRNKNSVA | SASTRES | QQYHRLPLS, the assay gave 860 pM (6 of 6 replicates; controls 2 of 18). The variant KLTQSVNYLSRVMNSVA | DNSTRES | QQYFRLPLS showed 2.0 nM (6 of 6 replicates; controls 1 of 18). The variant KLSQSFMYEERNPNSVA | NASKREE | QQYHRLPLS gave 1.2 nM (6 of 6 replicates; controls 3 of 18). The variant KLSQSMEYESRNWNSVA | QASTREH | QQYHRLPLM gave 12 nM (4 of 6 replicates; controls 0 of 18). With KFSQSDPYEDGNKNSVA | NASTRSS | QQYHRLPLS the result was 1.8 nM (6 of 6 replicates; controls 1 of 18).

The variant KIGATLNTLEHKQNNVA | DLVTREN | QQYFRLPLS showed 1.0 nM (6 of 6 replicates; controls 1 of 18). For KLAMILSMQAGTYHGVA | DANHKAD | QQYNRLPLS, the assay gave 1.2 nM (6 of 6 replicates; controls 1 of 18). The variant NISHFMDVTAKHNNNVA | EMTMREQ | QQYHHLPLS showed 99 nM (5 of 6 replicates; controls 0 of 18). With HSSPSYYYDSRNKNHVA | DATTRES | QQYHRLPLH the result was 48 nM (5 of 6 replicates; controls 1 of 18). For TISQLHNMGTFAINSVA | QASLRNE | QQYDRLPLT, the assay gave 21 nM (6 of 6 replicates; controls 1 of 18).

With KISQMVRVGATASNSIA | EEVTRAN | QQYHRLPLS the result was 4.9 nM (6 of 6 replicates; controls 0 of 18). With KIMQSQLGEMRNVNSVA | NASTRES | QQYHRLPLS the result was 1.3 nM (6 of 6 replicates; controls 2 of 18). With IVSQMMLWGMHLKNSIA | EAQTRLN | QQYDRLPLI the result was 36 nM (5 of 6 replicates; controls 0 of 18). For RSCQSVLYDSRDGNSIA | WASTREP | QQYHRLPLS, the assay gave 520 nM (3 of 6 replicates; controls 0 of 18).

The parent sequence was in this pool as ten entries: three were never detected, three once, and four in most replicates, with averages from 2.2 nM to 240 nM.
In the paper, a design with two or fewer of six values counts as a poor binder.
The range of this assay differs from that of the first round, and the authors advise against merging the two.
Empty control strains, which show no peptide, gave a signal in 4% of pairings with all light chain designs; the median was 430 nM and 95% of these signals were weaker than 38 nM. No background was subtracted. Also given: how often the same scFv was detected with the empty control strains.

Values reported by Li et al. 2023, doi:10.1038/s41467-023-39022-2 (FLAb copy).